{"source": "PubChem BioAssay AID624288", "about": "(National Center for Advancing Translational Sciences (NCATS), 2012)", "note": "Only a part is listed here, and it is no random draw. Records with an inconclusive call do not appear. Calls of active or inactive are those of the source. The call rests on the fitted dose curve; cell line not stated here. On the % scale 0 is the no-effect control and ±100 the full control effect.", "data": [{"test": "qHTS for Antagonists of gsp, the Etiologic Mutation Responsible for Fibrous Dysplasia/McCune-Albright Syndrome: qHTS; further: nearly all actives have a fitted effect of over 65% in size", "conditions": "gsp-mutant cells, cAMP HTRF, 30 min; at 76.9 µM (top of the series) unless noted", "values": [{"smiles": "Cc1cccc(OCC(=O)OC2CN3CCC2CC3)c1", "note": "(configuration not stated)", "activity change, negative = inhibition": "inactive: 5.4%"}, {"smiles": "CCOC(=O)c1ccc(NP(C)(=O)Oc2cc(C)cc(C)c2)cc1", "note": "(configuration not stated)", "activity change, negative = inhibition": "inactive: 7.73%"}, {"smiles": "C[C@@H]1C=CCP(=O)(Oc2ccccc2)O1", "note": "(some centres not stated)", "activity change, negative = inhibition": "inactive: 2.92%"}, {"smiles": "C[C@H]1OP(=O)(Oc2ccccc2)C[C@@H]2O[C@@H]21", "note": "(some centres not stated)", "activity change, negative = inhibition": "inactive: 7.54%"}, {"smiles": "O=C(OCCN1CCN(CCOCc2ccccc2)CC1)C(O)(c1ccccc1)c1ccccc1", "activity change, negative = inhibition": "inactive: -10.9%"}, {"smiles": "Cc1ccccc1CN(C)C(=O)COC(=O)C(O)(c1ccccc1)c1ccccc1", "activity change, negative = inhibition": "inactive: -7.13%"}, {"smiles": "COC(=O)C1(C)COP(=O)(NCc2ccccc2)OC1", "note": "(configuration not stated)", "activity change, negative = inhibition": "inactive: 1.87%"}, {"smiles": "N#C/C(=C\\c1ccc(N(CCBr)CCBr)cc1)C(N)=O", "activity change, negative = inhibition": "inactive: -3.18%"}, {"smiles": "CC(=O)c1ccc(N2CC2c2ccncc2)cc1", "note": "(configuration not stated)", "activity change, negative = inhibition": "inactive: 7.34%"}, {"smiles": "CC(=O)Nc1ccc(Oc2c([N+](=O)[O-])cc([N+](=O)[O-])cc2[N+](=O)[O-])cc1", "activity change, negative = inhibition": "inactive: -18.6%"}, {"smiles": "CC(=O)Nc1ccc([As](=O)(O)O)c(O)c1", "activity change, negative = inhibition": "inactive: 8.33%"}, {"smiles": "CCOc1ccc(C2=NCC(CBr)S2)cc1", "note": "(configuration not stated)", "activity change, negative = inhibition": "inactive: 8.56%"}, {"smiles": "O=P1(Nc2nc3ccc(Cl)cc3s2)COc2ccccc2O1", "note": "(configuration not stated)", "activity change, negative = inhibition": "inactive: 16.7%"}, {"smiles": "CC(C)c1ccc(OP(C)(=O)Nc2ccc(SC(F)(F)F)cc2)cc1", "note": "(configuration not stated)", "activity change, negative = inhibition": "inactive: 6.95%"}, {"smiles": "CP(=O)(Nc1ccccc1F)Oc1ccccc1", "note": "(configuration not stated)", "activity change, negative = inhibition": "inactive: 4.49%"}, {"smiles": "CCc1cc(O)c([N+](=O)[O-])c(C)c1[N+](=O)[O-]", "activity change, negative = inhibition": "inactive: 0.488%"}, {"smiles": "CCC(=O)N1C2C3N(C(=O)CC)C1C1N(C(=O)CC)C(C(N1C(=O)CC)N3C(=O)CC)N2C(=O)CC", "activity change, negative = inhibition": "inactive: -21.7%"}, {"smiles": "CCN(CC)CCCOC(=O)C(O)(c1ccccc1)C1CCCCC1", "note": "(configuration not stated)", "activity change, negative = inhibition": "inactive: -1.36%"}, {"smiles": "O=C(OC1CN2CCC1CC2)c1ccccc1", "note": "(configuration not stated)", "activity change, negative = inhibition": "inactive: 1.78%"}, {"smiles": "CC(=O)NC(SC(=S)N(CC(C)C)CC(C)C)C(Cl)(Cl)Cl", "note": "(configuration not stated)", "activity change, negative = inhibition": "inactive: -8.26%"}, {"smiles": "Cc1ccc(OP(=O)(Nc2ccccn2)Oc2ccc(C)cc2)cc1", "activity change, negative = inhibition": "inactive: -11.1%"}, {"smiles": "COC(=O)c1cc2c(s1)N=C(c1ccccc1)N(C)P2(=O)N1CCOCC1", "note": "(configuration not stated)", "activity change, negative = inhibition": "inactive: -2.82%"}, {"smiles": "Cc1c([N+](=O)[O-])cc([N+](=O)[O-])c(Br)c1[N+](=O)[O-]", "activity change, negative = inhibition": "inactive: -9.12%"}, {"smiles": "CN(C)C(=O)Oc1noc2ccccc12", "activity change, negative = inhibition": "inactive: 9.92%"}, {"smiles": "CCCCCOc1ccc(NP(C)(=O)Oc2ccc(Cl)cc2Cl)cc1", "note": "(configuration not stated)", "activity change, negative = inhibition": "inactive: 3.36%"}, {"smiles": "Cc1ccccc1OP(=O)(Nc1ccccn1)Oc1ccccc1C", "activity change, negative = inhibition": "inactive: -20.3%"}, {"smiles": "CC(NC(=O)COC(=O)C(O)(c1ccccc1)c1ccccc1)c1ccccc1", "note": "(configuration not stated)", "activity change, negative = inhibition": "inactive: -19.9%"}, {"smiles": "CP(=O)(Nc1ccccc1)Oc1ccc(F)cc1", "note": "(configuration not stated)", "activity change, negative = inhibition": "inactive: 36.1%"}, {"smiles": "Cc1ccc(NP(=O)(Oc2cccc(C)c2)Oc2cccc(C)c2)nc1", "activity change, negative = inhibition": "inactive: 2.66%"}, {"smiles": "c1ccc(-c2nn[nH]n2)c(-c2nn[nH]n2)c1", "activity change, negative = inhibition": "inactive: 1.73%"}, {"smiles": "O=C(NC1CCS(=O)(=O)C1)NP(=S)(Oc1ccccc1)Oc1ccccc1", "note": "(configuration not stated)", "activity change, negative = inhibition": "inactive: -22.2%"}, {"smiles": "CCNC(=S)/N=C(\\N)N[N+](=O)[O-]", "activity change, negative = inhibition": "inactive: 7.2%"}, {"smiles": "CCOC(=O)c1ccc(NP(C)(=O)Oc2ccc(F)cc2)cc1", "note": "(configuration not stated)", "activity change, negative = inhibition": "inactive: 10.4%"}, {"smiles": "O=P1(N(CCCl)CCCl)OCCC2CCCCN21", "note": "(configuration not stated)", "activity change, negative = inhibition": "inactive: 3.67%"}, {"smiles": "Cc1cc(-c2cccc3ccccc23)c(C)cn1.O=[N+]([O-])c1cc([N+](=O)[O-])c(O)c([N+](=O)[O-])c1", "activity change, negative = inhibition": "inactive: 7.79%"}, {"smiles": "O=[As](O)(c1ccccc1)c1ccc(O)cc1", "activity change, negative = inhibition": "inactive: -12.9%"}, {"smiles": "O=[N+]([O-])c1ccc(OP2(=O)COCCO2)cc1", "note": "(configuration not stated)", "activity change, negative = inhibition": "inactive: 7.25%"}, {"smiles": "CC(=O)NC(SC(=S)N(C)C)C(Cl)(Cl)Cl", "note": "(configuration not stated)", "activity change, negative = inhibition": "inactive: 10.2%"}, {"smiles": "O=[N+]([O-])c1ncn(CCn2cnc([N+](=O)[O-])n2)n1", "activity change, negative = inhibition": "inactive: -4.49%"}, {"smiles": "O=C(OC1CN2CCC1CC2)c1cccc(Cl)c1", "note": "(configuration not stated)", "activity change, negative = inhibition": "inactive: 7.52%"}, {"smiles": "Nc1ccc([As](=O)(O)c2ccc([N+](=O)[O-])cc2)cc1", "activity change, negative = inhibition": "inactive: 7.6%"}, {"smiles": "C(Cc1nn[nH]n1)Cc1nn[nH]n1", "activity change, negative = inhibition": "inactive: 11.1%"}, {"smiles": "Cc1c(C(c2ccc3c(c2)OCO3)c2c(C)n(C)n(-c3ccccc3)c2=O)c(=O)n(-c2ccccc2)n1C.O=[N+]([O-])c1cc([N+](=O)[O-])c(O)c([N+](=O)[O-])c1", "activity change, negative = inhibition": "inactive: 8.21%"}, {"smiles": "CN(C)C1(CNC(=O)c2ccc(Cl)c(S(N)(=O)=O)c2)CCCCC1", "activity change, negative = inhibition": "inactive: 14.3%"}, {"smiles": "O=P(Nc1ccccn1)(c1ccc(Br)cc1)c1ccc(Br)cc1", "activity change, negative = inhibition": "inactive: -11.3%"}, {"smiles": "COc1ccc(N)c([N+](=O)[O-])c1[N+](=O)[O-]", "activity change, negative = inhibition": "inactive: 1.79%"}, {"smiles": "COc1ccc(OP(C)(=O)Nc2cccc(Br)c2)cc1", "note": "(configuration not stated)", "activity change, negative = inhibition": "inactive: 2.9%"}, {"smiles": "COc1ccc(NP(C)(=O)Oc2ccccc2OC)cc1", "note": "(configuration not stated)", "activity change, negative = inhibition": "inactive: 13.6%"}, {"smiles": "C[C@H]1OP(=O)(Oc2ccccc2)[C@H](O)[C@H](O)[C@H]1N=[N+]=[N-]", "note": "(some centres not stated)", "activity change, negative = inhibition": "inactive: 3.82%"}, {"smiles": "O=P(Nc1nc2ccccc2s1)(c1ccccc1)c1ccccc1", "activity change, negative = inhibition": "inactive: -4.55%"}, {"smiles": "CN(C)CCOC(=O)C(O)(c1ccccc1)C1CCCCC1", "note": "(configuration not stated)", "activity change, negative = inhibition": "inactive: 8.28%"}, {"smiles": "CP(=O)(Nc1ccc2c(c1)OCCO2)Oc1ccccc1", "note": "(configuration not stated)", "activity change, negative = inhibition": "inactive: 3.94% [at 15.4 µM]"}, {"smiles": "Cc1ccccc1NP(C)(=O)Nc1ccccc1C", "activity change, negative = inhibition": "inactive: -4.89%"}, {"smiles": "O=P(Nc1nccs1)(c1ccccc1)c1ccccc1", "activity change, negative = inhibition": "inactive: 5.75%"}, {"smiles": "CC(C)C(=O)NC(Sc1ccccc1)C(Cl)(Cl)Cl", "note": "(configuration not stated)", "activity change, negative = inhibition": "inactive: -12.2%"}, {"smiles": "CP(=O)(Nc1ccc(SC(F)(F)F)cc1)Oc1ccc(F)cc1", "note": "(configuration not stated)", "activity change, negative = inhibition": "inactive: 21.1%"}, {"smiles": "c1nnnn1CCn1cnnn1", "activity change, negative = inhibition": "inactive: 12%"}, {"smiles": "CCOP(C)(=S)SCC(=O)NC(C)(CC)C(=O)O", "note": "(configuration not stated)", "activity change, negative = inhibition": "inactive: 13.7%"}, {"smiles": "CP(=O)(Nc1ccc(Cl)cc1)Oc1ccc(F)cc1", "note": "(configuration not stated)", "activity change, negative = inhibition": "inactive: 9.15%"}, {"smiles": "CCN(/C(=N/P(=O)(N1CCOCC1)N1CCOCC1)N1CCOCC1)c1ccc(OC)cc1", "activity change, negative = inhibition": "inactive: 3.18%"}, {"smiles": "C[N+]1=C2C=CC=CC=C2SC12C([N+](=O)[O-])=CC([N+](=O)[O-])=C[C-]2[N+](=O)[O-]", "note": "(configuration not stated)", "activity change, negative = inhibition": "inactive: -8.72%"}, {"smiles": "Nc1ccc([As](=O)(O)c2ccc(N)cc2)cc1", "activity change, negative = inhibition": "inactive: 16.1%"}]}]}
